From article PMC3152585 (Dental materials : official publication of the Academy of …, 2011) come the findings set out here.

Sequences of proteins named here, by UniProt entry; tags and fusion partners are left off. Residues count along the entry.
UniProt P14780, 107-707 limits assumed: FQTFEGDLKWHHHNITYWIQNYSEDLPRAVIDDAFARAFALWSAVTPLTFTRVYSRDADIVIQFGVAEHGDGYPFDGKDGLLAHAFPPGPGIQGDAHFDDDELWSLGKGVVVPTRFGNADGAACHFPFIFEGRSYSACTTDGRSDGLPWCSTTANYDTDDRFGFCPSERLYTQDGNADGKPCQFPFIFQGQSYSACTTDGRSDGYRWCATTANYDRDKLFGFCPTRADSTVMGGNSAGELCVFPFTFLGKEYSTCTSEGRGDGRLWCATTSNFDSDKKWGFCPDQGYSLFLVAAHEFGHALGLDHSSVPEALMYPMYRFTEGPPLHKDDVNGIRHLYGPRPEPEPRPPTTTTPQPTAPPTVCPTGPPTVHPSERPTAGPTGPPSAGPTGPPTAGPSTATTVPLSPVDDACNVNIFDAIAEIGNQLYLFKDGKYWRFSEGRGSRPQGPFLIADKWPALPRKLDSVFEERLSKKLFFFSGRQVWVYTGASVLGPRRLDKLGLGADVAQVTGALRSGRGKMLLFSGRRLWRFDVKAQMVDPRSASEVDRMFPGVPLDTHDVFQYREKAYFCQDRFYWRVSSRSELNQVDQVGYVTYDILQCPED

In the experiment the target is recombinant human MMP-9 (rhMMP-9) (Homo sapiens, UniProt P14780). The experiment can be described thus: Sensolyte Generic MMP colorimetric assay with soluble rhMMP-9. The note with it: from regression of percent inhibition vs alcohol concentration; mean ± SEM, n=5.

Marks after values point to notes of the source that are not given here.

For the compound `CCCCCO` [1-pentanol], the “IC50 (moles/L) for rhMMP-9” value stood at 1.7 ± 0.04%^c moles/L.
